Laboratory results from PubChem BioAssay AID1048 (The Scripps Research Institute Molecular Screening Center, 2008).
The list shows a part of the results, in another mix than the full data. Calls of active or inactive are those of the source. No stated cut-off is given here; in the data, active means TR-FRET ratio above about 2000; inactive means the rest.

test: TR-FRET detection interference compounds, artefact control for PPARgamma SRC-3 recruitment agonists, biochemical, TR-FRET ratio (AID 1048); conditions: TR-FRET artefact counter-screen, PPARgamma/SRC-3 format; at 8 µM; active compounds read high

**Q.** With `COc1ccc(NP(C)(=O)Oc2ccccc2OC)cc1` (stereo not given) as the molecule, how does the TR-FRET ratio read?
**A.** inactive: 1760

**Q.** With `O=[N+]([O-])c1cc([N+](=O)[O-])c(NCC2CCS(=O)(=O)C2)c([N+](=O)[O-])c1` (stereo not given) as the molecule, how does the TR-FRET ratio read?
**A.** inactive: 1610

**Q.** With `Cc1ccccc1NP(C)(=O)Nc1ccccc1C` as the molecule, how does the TR-FRET ratio read?
**A.** inactive: 1580

**Q.** Which TR-FRET ratio does the source give for `CC(C)c1ccc(OP(C)(=O)Nc2ccc(SC(F)(F)F)cc2)cc1` (stereo not given) here?
**A.** inactive: 1520

**Q.** For `O=C(OCCN1CCN(CCOCc2ccccc2)CC1)C(O)(c1ccccc1)c1ccccc1`, which TR-FRET ratio is on record?
**A.** inactive: 1520

**Q.** For `CCOC(=O)c1ccc(NP(C)(=O)Oc2ccc(F)cc2)cc1` (stereo not given), which TR-FRET ratio is on record?
**A.** inactive: 1640

**Q.** With `COc1ccc(OP(C)(=O)Nc2ccc(SC(F)(F)F)cc2)cc1` (stereo not given) as the molecule, how does the TR-FRET ratio read?
**A.** inactive: 1380

**Q.** With `COc1ccc(OP(C)(=O)Nc2ccccc2Br)cc1` (stereo not given) as the molecule, how does the TR-FRET ratio read?
**A.** inactive: 1760

**Q.** Which TR-FRET ratio does the source give for `Cc1cc(C)cc(OP(C)(=O)Nc2cccc(C(F)(F)F)c2)c1` (stereo not given) here?
**A.** inactive: 1800

**Q.** With `CP(=O)(OCCOc1ccccc1)OCCOc1ccccc1` as the molecule, how does the TR-FRET ratio read?
**A.** inactive: 1670

**Q.** With `CP(=O)(Nc1ccc(Cl)cc1Cl)Oc1ccccc1` (stereo not given) as the molecule, how does the TR-FRET ratio read?
**A.** inactive: 1540

**Q.** Which TR-FRET ratio does the source give for `O=[N+]([O-])c1cc([N+](=O)[O-])c(Nc2ccccn2)c([N+](=O)[O-])c1` here?
**A.** inactive: 1560

**Q.** For `CCc1ccc(OP(C)(=O)Nc2cccnc2)cc1` (stereo not given), which TR-FRET ratio is on record?
**A.** inactive: 1470

**Q.** With `COc1ccc(OP(C)(=O)Nc2ccc(Br)cc2)cc1` (stereo not given) as the molecule, how does the TR-FRET ratio read?
**A.** inactive: 1520

**Q.** Which TR-FRET ratio does the source give for `CN(C)C(=O)c1c([N+](=O)[O-])cc([N+](=O)[O-])cc1[N+](=O)[O-]` here?
**A.** inactive: 1720

**Q.** Which TR-FRET ratio does the source give for `COc1ccccc1OP(C)(=O)Nc1ccccc1Br` (stereo not given) here?
**A.** inactive: 1360

**Q.** Which TR-FRET ratio does the source give for `CCOC(=O)c1ccc(NP(C)(=O)Oc2ccc(Cl)cc2)cc1` (stereo not given) here?
**A.** inactive: 1460

**Q.** Which TR-FRET ratio does the source give for `CP(=O)(Nc1ccccc1Br)Oc1ccccc1` (stereo not given) here?
**A.** inactive: 1790

**Q.** For `COc1ccccc1OP(C)(=O)Nc1ccccc1` (stereo not given), which TR-FRET ratio is on record?
**A.** inactive: 1570

**Q.** With `Cc1cc(C)cc(OP(C)(=O)Nc2ccc(SC(F)(F)F)cc2)c1` (stereo not given) as the molecule, how does the TR-FRET ratio read?
**A.** inactive: 1600

**Q.** For `Cc1cccc(C)c1OP(C)(=O)Nc1ccc(SC(F)(F)F)cc1` (stereo not given), which TR-FRET ratio is on record?
**A.** inactive: 1360

**Q.** With `CP(=O)(Oc1ccccc1)OC(c1ccccc1)C(F)(F)F` (stereo not given) as the molecule, how does the TR-FRET ratio read?
**A.** inactive: 1600

**Q.** Which TR-FRET ratio does the source give for `CCOC(=O)c1ccc(NP(C)(=O)Oc2ccc(OC)cc2)cc1` (stereo not given) here?
**A.** inactive: 1510

**Q.** Which TR-FRET ratio does the source give for `CCOP(C)(=S)SCC(=O)NC(C)C(=O)O` (stereo not given) here?
**A.** inactive: 1750

**Q.** For `CCN(CC)CCCOC(=O)C(O)(c1ccccc1)c1ccccc1`, which TR-FRET ratio is on record?
**A.** inactive: 1440

**Q.** For `O=[N+]([O-])c1ccc2c(c1)C=Nc1ccccc1O2`, which TR-FRET ratio is on record?
**A.** inactive: 1690

**Q.** Which TR-FRET ratio does the source give for `CC(C)(C)c1ccc(OP(C)(=O)Nc2ccc(SC(F)(F)F)cc2)cc1` (stereo not given) here?
**A.** inactive: 1660

**Q.** With `Cc1cccc(C)c1OP(C)(N)=O` (stereo not given) as the molecule, how does the TR-FRET ratio read?
**A.** inactive: 1660

**Q.** Which TR-FRET ratio does the source give for `Cc1cc(C)cc(OP(C)(N)=O)c1` (stereo not given) here?
**A.** inactive: 1700

**Q.** For `COc1ccccc1OP(C)(=O)Nc1cc(Cl)ccc1C` (stereo not given), which TR-FRET ratio is on record?
**A.** inactive: 1720

**Q.** Which TR-FRET ratio does the source give for `COc1ccccc1OP(C)(=O)Nc1ccc(C)cc1` (stereo not given) here?
**A.** inactive: 1680

**Q.** With `Cc1ccc(NP(C)(=O)Oc2ccccc2)c(C)c1` (stereo not given) as the molecule, how does the TR-FRET ratio read?
**A.** inactive: 1540

**Q.** Which TR-FRET ratio does the source give for `CCOC(=O)c1ccc(NP(C)(=O)Oc2ccccc2)cc1` (stereo not given) here?
**A.** inactive: 1300

**Q.** Which TR-FRET ratio does the source give for `CC1=NCCc2c1[nH]c1ccccc21.O=[N+]([O-])c1cc([N+](=O)[O-])c(O)c([N+](=O)[O-])c1` here?
**A.** inactive: 1680

**Q.** Which TR-FRET ratio does the source give for `CCOC(=O)c1ccc(NP(C)(=O)Oc2cc(C)cc(C)c2)cc1` (stereo not given) here?
**A.** inactive: 1500

**Q.** With `CP(=O)(Nc1cccc(Br)c1)Oc1ccccc1` (stereo not given) as the molecule, how does the TR-FRET ratio read?
**A.** inactive: 1380

**Q.** For `O=[N+]([O-])c1cc([N+](=O)[O-])c(-n2nnc3ccccc32)c([N+](=O)[O-])c1`, which TR-FRET ratio is on record?
**A.** inactive: 1670

**Q.** With `CP(=O)(Nc1ccc(SC(F)(F)F)cc1)Oc1ccccc1` (stereo not given) as the molecule, how does the TR-FRET ratio read?
**A.** inactive: 1450

**Q.** For `CCCOc1ccc(NP(C)(=O)Oc2ccc(Cl)cc2)cc1` (stereo not given), which TR-FRET ratio is on record?
**A.** inactive: 1460

**Q.** For `CN1CCCCC1COC(=O)C1(O)c2ccccc2CCc2ccccc21` (stereo not given), which TR-FRET ratio is on record?
**A.** inactive: 1660
